The values below come from US11667949B2, “Reporter construct and biosensor for interferon second messenger 2-5A” (The Trustees of Princeton University, priority 2018, dated 2023).

The assay deals with A549 cells. As to the kind of experiment: Live cell 2-5A measurements in A549 cells stably expressing FLAG-V6 biosensor. The class given is cell-based, human. As to conditions: IFN-β pre-treatment 24 hours before poly-IC. As for the experimental part:
Live cell 2-5A measurements in stable cell lines expressing V6 or V6-Y312A reporters: A549 or HeLa cells stably expressing V6 or V6-Y312A control reporters were seeded at a density of 1·10^4 /well on TC-treated, clear flat bottom white 96-well plates. Before transfection with poly-IC, cells were pre-treated with 100 μM D-luciferin ethyl ester (1% DMSO) (f/c) (Marker Gene Technologies). […] Dilutions of poly-IC were made by diluting the poly-IC/lipofectamine complexes. Luminescence measurements were taken in repeat-mode using plate reader at time intervals shown on the figures. After three hours, fresh D-luciferin ethyl ester (100 μM) was re-supplied at every hour to ensure excess reporter substrate. Luminescence acquisition time was one minute per well. For IFN-β pre-treatment, a dose of 1000 U/mL (f/c) was used 24 hours before poly-IC treatment.

B1: IFN-β: recombinant IFN-β (protein, UniProt P01574 22-187, looked up)
Interferon beta: MSYNLLGFLQRSSNFQCQKLLWQLNGRLEYCLKDRMNFDIPEEIKQLQQFQKEDAALTIYEMLQNIFAIFRQDSSSTGWNETIVENLLANVYHQINHLKTVLEEKLEKEDFTRGKLMSSLHLKRYYGRILHYLKAKEYSHCAWTIVRVEILRNFYFINRLTGYLRN
On to B1, for which the “effect of priming on 2-5A synthesis” value was ≤ 2 fold.
